Assays:
hAChE N283D = hAChE N283D (Homo sapiens, UniProt P22303, N314D)
mAChE D283N = target: T1, mAChE D283N (Mus musculus, UniProt P21836, D314N)
T1 sequence (P21836 32-614 D314N): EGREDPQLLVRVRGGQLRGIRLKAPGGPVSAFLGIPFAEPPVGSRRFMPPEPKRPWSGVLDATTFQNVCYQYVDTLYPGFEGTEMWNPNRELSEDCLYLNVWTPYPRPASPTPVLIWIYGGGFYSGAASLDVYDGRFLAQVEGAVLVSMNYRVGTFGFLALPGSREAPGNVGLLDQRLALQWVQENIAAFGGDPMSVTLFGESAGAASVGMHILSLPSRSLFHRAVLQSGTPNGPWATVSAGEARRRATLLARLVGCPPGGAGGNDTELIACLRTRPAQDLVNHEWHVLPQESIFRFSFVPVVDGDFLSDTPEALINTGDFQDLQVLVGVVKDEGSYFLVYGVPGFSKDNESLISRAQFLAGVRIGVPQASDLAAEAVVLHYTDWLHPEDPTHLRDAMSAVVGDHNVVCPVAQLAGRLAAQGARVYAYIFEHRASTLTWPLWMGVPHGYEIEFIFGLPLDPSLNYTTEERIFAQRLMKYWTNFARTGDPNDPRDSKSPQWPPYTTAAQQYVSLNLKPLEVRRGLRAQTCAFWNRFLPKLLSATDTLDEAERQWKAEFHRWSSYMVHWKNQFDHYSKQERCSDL

Protein sequences, listed by entry. Tags and fused reporters are not part of them. Residues count along the entry.
UniProt P22303, 32-614 N314D: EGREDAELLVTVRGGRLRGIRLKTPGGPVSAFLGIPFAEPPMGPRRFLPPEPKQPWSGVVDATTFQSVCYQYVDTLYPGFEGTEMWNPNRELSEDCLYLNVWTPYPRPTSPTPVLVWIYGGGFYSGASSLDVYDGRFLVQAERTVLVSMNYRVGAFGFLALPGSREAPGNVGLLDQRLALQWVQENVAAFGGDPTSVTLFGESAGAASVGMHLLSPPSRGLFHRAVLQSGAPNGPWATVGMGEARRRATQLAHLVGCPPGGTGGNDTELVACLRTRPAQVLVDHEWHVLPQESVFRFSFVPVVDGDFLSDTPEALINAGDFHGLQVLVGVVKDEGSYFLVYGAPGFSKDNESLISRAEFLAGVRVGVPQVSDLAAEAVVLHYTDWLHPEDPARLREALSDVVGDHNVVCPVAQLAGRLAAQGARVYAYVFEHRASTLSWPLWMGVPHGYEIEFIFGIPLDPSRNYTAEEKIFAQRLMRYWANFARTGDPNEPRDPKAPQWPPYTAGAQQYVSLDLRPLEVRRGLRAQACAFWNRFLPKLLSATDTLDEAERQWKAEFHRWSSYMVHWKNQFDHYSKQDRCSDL
UniProt P22303, 32-614 D105A: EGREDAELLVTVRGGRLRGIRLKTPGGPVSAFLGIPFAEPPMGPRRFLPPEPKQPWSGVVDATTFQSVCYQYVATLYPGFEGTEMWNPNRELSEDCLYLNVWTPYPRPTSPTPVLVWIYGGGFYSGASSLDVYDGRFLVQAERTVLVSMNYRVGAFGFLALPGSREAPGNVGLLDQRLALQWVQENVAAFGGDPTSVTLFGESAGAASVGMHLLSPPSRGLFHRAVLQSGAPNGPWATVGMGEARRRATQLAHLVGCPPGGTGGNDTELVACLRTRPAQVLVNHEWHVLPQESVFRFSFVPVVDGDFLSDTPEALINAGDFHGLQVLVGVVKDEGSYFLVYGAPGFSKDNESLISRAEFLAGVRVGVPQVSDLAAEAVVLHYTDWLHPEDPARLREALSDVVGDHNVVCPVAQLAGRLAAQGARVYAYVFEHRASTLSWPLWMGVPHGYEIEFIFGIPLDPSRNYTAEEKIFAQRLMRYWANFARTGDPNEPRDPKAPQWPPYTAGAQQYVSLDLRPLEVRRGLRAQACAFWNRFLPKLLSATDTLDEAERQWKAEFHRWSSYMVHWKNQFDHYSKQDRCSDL
UniProt P22303, 32-614 Y372A: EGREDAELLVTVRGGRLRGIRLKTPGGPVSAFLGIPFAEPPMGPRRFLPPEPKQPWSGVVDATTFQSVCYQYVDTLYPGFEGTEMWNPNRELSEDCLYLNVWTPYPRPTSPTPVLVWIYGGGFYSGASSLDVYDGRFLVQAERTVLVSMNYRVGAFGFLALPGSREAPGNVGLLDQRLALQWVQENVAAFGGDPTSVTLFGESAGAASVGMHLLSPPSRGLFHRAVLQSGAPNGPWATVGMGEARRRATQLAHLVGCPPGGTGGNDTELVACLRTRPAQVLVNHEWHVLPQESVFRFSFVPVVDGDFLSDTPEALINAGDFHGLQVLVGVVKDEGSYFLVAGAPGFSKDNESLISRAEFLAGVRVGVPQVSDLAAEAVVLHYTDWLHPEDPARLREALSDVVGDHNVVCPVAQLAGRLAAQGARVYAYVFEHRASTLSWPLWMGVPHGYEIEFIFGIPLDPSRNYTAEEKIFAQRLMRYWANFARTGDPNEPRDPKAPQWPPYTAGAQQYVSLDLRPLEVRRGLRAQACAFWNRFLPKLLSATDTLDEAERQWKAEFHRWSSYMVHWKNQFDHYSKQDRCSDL
UniProt P22303, 32-614 N314A: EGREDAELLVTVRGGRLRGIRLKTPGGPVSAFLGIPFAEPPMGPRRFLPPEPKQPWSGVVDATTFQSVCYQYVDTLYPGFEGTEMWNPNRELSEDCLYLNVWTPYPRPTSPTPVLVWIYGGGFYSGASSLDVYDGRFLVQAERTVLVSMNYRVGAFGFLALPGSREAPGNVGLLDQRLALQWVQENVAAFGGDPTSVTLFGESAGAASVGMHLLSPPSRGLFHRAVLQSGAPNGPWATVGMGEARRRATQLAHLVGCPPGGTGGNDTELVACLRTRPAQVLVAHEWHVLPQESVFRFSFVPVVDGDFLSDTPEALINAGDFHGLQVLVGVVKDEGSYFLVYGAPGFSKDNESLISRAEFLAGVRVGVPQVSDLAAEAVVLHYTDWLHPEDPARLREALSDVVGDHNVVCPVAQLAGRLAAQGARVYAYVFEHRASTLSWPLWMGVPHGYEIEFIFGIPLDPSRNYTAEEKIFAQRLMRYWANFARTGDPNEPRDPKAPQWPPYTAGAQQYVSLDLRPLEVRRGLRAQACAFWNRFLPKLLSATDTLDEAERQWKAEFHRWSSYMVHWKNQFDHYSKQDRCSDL
UniProt P22303, 32-614 D105N: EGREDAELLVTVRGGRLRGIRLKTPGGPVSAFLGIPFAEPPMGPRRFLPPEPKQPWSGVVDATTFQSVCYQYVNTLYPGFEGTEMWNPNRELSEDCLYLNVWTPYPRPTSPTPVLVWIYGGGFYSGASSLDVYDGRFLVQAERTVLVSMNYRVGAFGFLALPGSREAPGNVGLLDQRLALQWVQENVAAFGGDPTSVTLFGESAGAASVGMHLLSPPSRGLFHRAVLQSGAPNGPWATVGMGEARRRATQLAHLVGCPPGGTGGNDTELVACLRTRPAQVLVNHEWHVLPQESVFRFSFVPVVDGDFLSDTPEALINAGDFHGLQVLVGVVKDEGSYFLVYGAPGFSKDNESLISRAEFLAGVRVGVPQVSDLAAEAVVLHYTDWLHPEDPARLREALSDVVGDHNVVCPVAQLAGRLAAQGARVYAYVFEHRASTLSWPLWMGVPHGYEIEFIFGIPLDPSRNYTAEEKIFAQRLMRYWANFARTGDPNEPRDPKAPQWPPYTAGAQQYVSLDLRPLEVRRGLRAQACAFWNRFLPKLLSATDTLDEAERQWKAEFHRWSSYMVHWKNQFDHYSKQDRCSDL
UniProt P22303, 32-614 Y103A: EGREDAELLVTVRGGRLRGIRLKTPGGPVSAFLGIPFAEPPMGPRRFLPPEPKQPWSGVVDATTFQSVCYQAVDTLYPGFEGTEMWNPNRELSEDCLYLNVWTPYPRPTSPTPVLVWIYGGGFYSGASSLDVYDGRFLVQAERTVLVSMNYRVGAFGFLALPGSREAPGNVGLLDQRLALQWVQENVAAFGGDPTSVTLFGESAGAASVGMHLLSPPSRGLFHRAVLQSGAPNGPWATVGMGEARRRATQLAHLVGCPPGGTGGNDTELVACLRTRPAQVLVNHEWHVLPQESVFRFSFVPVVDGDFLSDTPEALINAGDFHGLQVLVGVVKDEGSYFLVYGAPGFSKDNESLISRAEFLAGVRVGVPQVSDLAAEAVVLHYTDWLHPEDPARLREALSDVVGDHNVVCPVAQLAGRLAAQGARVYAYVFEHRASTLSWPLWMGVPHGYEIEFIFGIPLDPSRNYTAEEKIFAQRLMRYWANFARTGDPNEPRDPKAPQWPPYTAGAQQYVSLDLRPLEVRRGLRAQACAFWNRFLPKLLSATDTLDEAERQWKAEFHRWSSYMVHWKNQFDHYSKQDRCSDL

hAChE D74A = hAChE D74A (Homo sapiens, UniProt P22303, D105A)
hAChE Y341A = hAChE Y341A (Homo sapiens, UniProt P22303, Y372A)
hAChE N283A = hAChE N283A (Homo sapiens, UniProt P22303, N314A)
hAChE D74N = hAChE D74N (Homo sapiens, UniProt P22303, D105N)
hAChE Y72A = hAChE Y72A (Homo sapiens, UniProt P22303, Y103A)

## CN(C)c1ccc([C+](c2ccc(N(C)C)cc2)c2ccc(N(C)C)cc2)cc1.[Cl-] [CV, tris(4-(dimethylamino)phenyl)methylium chloride]
hAChE N283D
  Hill Coefficient: −1.9 (−2.01–−1.75)
mAChE D283N
  Hill Coefficient: −1.8 (−1.92–−1.64)
hAChE D74A
  Hill Coefficient: −1.7 (−1.83–−1.49)
hAChE Y341A
  Hill Coefficient: −2.0 (−2.26–−1.82)
hAChE N283A
  Hill Coefficient: −1.8 (−1.86–−1.68)
hAChE D74N
  Hill Coefficient: −2.1 (−2.44–−1.86)
hAChE Y72A
  Hill Coefficient: −1.8 (−1.96–−1.73)

Source: publication PMC6151500 (Molecules : A Journal of Synthetic Chemistry and Natural …, 2017)
